Experimental data as given in PubChem BioAssay AID686978 (National Center for Advancing Translational Sciences (NCATS), 2013).
Several values for one entry are separate records, joined by “and”; a condition that tells them apart may be missing. Identical values can stand only once. The list shows a part of the results, in another mix than the full data. Some tests of the compounds listed are not included; inactive here does not mean inactive elsewhere. Records with an inconclusive call do not appear. Activity calls are given as the source filed them. Calls follow the shape of the dose curve; as a rule, active = well fitted inhibition curve with a large enough effect; inconclusive = small, poorly fitted or top-dose-only effect; inactive = flat fitted curve, though single readings scatter.

Assay: qHTS for Inhibitors of human tyrosyl-DNA phosphodiesterase 1 (TDP1): qHTS in cells in absence of CPT; also: nearly all actives have a fitted effect of over 55% in size
Conditions: DT40 Tdp1-/- hTDP1 cells, no CPT, ATP luminescence, 48 h; at 46.2 µM (top of the series)
% is scaled to controls: 0 for no effect and ±100 for the full control effect.

**Q.** For `COc1ccc(C(=O)NCC2(N(C)C)CCCCC2)cc1`, which activity change, negative = growth inhibition is on record?
**A.** inactive: 18.9%

**Q.** For `O=C(NCC1(N2CCCCC2)CCCCC1)c1cccc(Br)c1`, which activity change, negative = growth inhibition is on record?
**A.** inactive: -7.08%

**Q.** For `CCN1CCCC(OC(=O)C2(O)c3ccccc3C=Cc3ccccc32)C1` (configuration not stated), which activity change, negative = growth inhibition is on record?
**A.** inactive: -20.4%

**Q.** With `O=C(NCC1(N2CCCCC2)CCCCC1)c1cc(F)c(F)cc1Cl` as the compound, how does the activity change, negative = growth inhibition read?
**A.** inactive: -26.6%

**Q.** For `C=CCN1CCN(CCOC(=O)C(O)(c2ccccc2)c2ccccc2)CC1`, which activity change, negative = growth inhibition is on record?
**A.** inactive: -5.76%

**Q.** With `CN1CCCC(OC(=O)C(O)(c2ccccc2)c2ccccc2)C1` (configuration not stated) as the compound, how does the activity change, negative = growth inhibition read?
**A.** inactive: -11%

**Q.** For `CN(C)c1ccc(C(=O)NCC2(N(C)C)CCCCC2)cc1`, which activity change, negative = growth inhibition is on record?
**A.** inactive: -1.89%

**Q.** For `Cc1ccccc1C(=O)NCC1(N2CCCCC2)CCCCC1`, which activity change, negative = growth inhibition is on record?
**A.** inactive: 7.86%

**Q.** For `Cc1ccc(C(=O)NCC2(N3CCCCC3)CCCCC2)cc1`, which activity change, negative = growth inhibition is on record?
**A.** inactive: -18.7%

**Q.** Which activity change, negative = growth inhibition does the source give for `COc1cc(SC)ccc1C(=O)NCC1(N(C)C)CCCCC1` here?
**A.** inactive: 12.2%

**Q.** Which activity change, negative = growth inhibition does the source give for `CCN(CC)CC(C)C(C)OC(=O)C(O)(c1ccccc1)c1ccccc1` (configuration not stated) here?
**A.** inactive: -14.2%

**Q.** Which activity change, negative = growth inhibition does the source give for `CN(C)C1(CNC(=O)c2cccc(Cl)c2)CCCCC1` here?
**A.** inactive: -2.18%

**Q.** For `CC(C)N1C(=O)CC2(CCN(CCOC(=O)C(O)(c3ccccc3)c3ccccc3)CC2)C1=O`, which activity change, negative = growth inhibition is on record?
**A.** inactive: -11.6%

**Q.** With `CN1[C@@H]2CC[C@H]1CC(OC(=O)C(O)(c1ccccc1)c1ccccc1)C2` (some centres not stated) as the compound, how does the activity change, negative = growth inhibition read?
**A.** inactive: -17.8%

**Q.** Which activity change, negative = growth inhibition does the source give for `O=C(NCC1(N2CCCCC2)CCCCC1)c1cc([N+](=O)[O-])ccc1Cl` here?
**A.** inactive: -11.2%

**Q.** Which activity change, negative = growth inhibition does the source give for `CC(C)Oc1ccc(C(=O)NCC2(N(C)C)CCCCC2)cc1` here?
**A.** inactive: 6.77% and inactive: -19.7%

**Q.** For `CN(C)c1cccc(C(=O)NCC2(N(C)C)CCCCC2)c1`, which activity change, negative = growth inhibition is on record?
**A.** inactive: -19.3%

**Q.** Which activity change, negative = growth inhibition does the source give for `C=C(C)C#CC(O)(C(=O)OC1CCN(C)CC1)c1ccccc1` (configuration not stated) here?
**A.** inactive: -29.4%

**Q.** With `COc1ccc(Br)c(C(=O)NCC2(N3CCCCC3)CCCCC2)c1` as the compound, how does the activity change, negative = growth inhibition read?
**A.** inactive: -22.5%

**Q.** Which activity change, negative = growth inhibition does the source give for `COc1cc(C(=O)NCC2(N(C)C)CCCCC2)cc(OC)c1OC` here?
**A.** inactive: -2.57%

**Q.** With `Cc1cccc(C(=O)NCC2(N(C)C)CCCCC2)c1` as the compound, how does the activity change, negative = growth inhibition read?
**A.** inactive: -1.96%

**Q.** For `O=C(OC1CN2CCC1CC2)C(CO)(c1ccccc1)c1ccccc1` (configuration not stated), which activity change, negative = growth inhibition is on record?
**A.** inactive: -22.2%

**Q.** Which activity change, negative = growth inhibition does the source give for `O=C(NCC1(N2CCCCC2)CCCCC1)c1cccc(Cl)c1` here?
**A.** inactive: -16.1%

**Q.** Which activity change, negative = growth inhibition does the source give for `COc1ccc(Cl)cc1C(=O)NCC1(N(C)C)CCCCC1` here?
**A.** inactive: -1.77%

**Q.** For `COc1cccc(C(=O)NCC2(N3CCCCC3)CCCCC2)c1`, which activity change, negative = growth inhibition is on record?
**A.** inactive: -16.1%

**Q.** With `COc1ccc(C(=O)NCC2(N(C)C)CCCCC2)cc1Cl` as the compound, how does the activity change, negative = growth inhibition read?
**A.** inactive: -15.5%

**Q.** With `COc1cc(C(=O)NCC2(N(C)C)CCCCC2)c([N+](=O)[O-])cc1OC` as the compound, how does the activity change, negative = growth inhibition read?
**A.** inactive: -17.2%
